Biological target: 15-LO (UniProt P12530)
Format: biochemical
Conditions: read-out: IC50 for 15-LO
Description: IC50's may be determined by standard methods. One particular method is a colorimetric assay in which the putative inhibitor is pre-incubated with the 15-LO enzyme for about 10 minutes followed by addition of linoleic acid substrate for an additional 10 minutes. The product, 13-HPODE, is quantitated by coupling the reduction of the hydroperoxylated lipid to the oxidation on N-benzoyl-leucomethylene blue in the presence of hemin at pH 5. The absorbance of the oxidized methylene blue is directly proportional to the amount of 13-HPODE formed by the 15-LO, and can be measured in the presence and absence of inhibitor.

The chains behind the UniProt entries cited, without tags or fusion partners. Where a name states a change or a piece, a line headed by the entry shows the natural chain unless it says otherwise.
UniProt P12530: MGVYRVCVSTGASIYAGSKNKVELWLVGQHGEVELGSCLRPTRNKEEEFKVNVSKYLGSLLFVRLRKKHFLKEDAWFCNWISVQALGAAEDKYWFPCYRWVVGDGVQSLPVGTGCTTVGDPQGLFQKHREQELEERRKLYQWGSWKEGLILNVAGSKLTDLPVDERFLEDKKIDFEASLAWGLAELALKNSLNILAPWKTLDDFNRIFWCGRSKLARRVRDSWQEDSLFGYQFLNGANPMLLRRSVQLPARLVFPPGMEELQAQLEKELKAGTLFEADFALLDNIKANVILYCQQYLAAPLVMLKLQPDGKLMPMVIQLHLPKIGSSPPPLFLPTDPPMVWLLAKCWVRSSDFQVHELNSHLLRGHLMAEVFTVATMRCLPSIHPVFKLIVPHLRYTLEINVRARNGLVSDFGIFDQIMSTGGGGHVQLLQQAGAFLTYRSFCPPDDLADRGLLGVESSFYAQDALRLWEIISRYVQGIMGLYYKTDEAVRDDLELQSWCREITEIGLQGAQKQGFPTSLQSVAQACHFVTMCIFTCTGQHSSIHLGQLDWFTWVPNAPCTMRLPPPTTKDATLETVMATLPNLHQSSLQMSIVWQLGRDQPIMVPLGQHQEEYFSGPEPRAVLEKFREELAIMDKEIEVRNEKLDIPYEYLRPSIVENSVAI

**Q.** How did the IC50 turn out when `c1ccc2c(c1)SCc1c-2[nH]c2ccccc12` [Compound 2, 6,11-dihydro-5-thia-11-aza-benzo[a]fluorene] was run?
**A.** Its IC50 is roughly 200 nM.

Reference: US20030175680A1, “Methods of treating and preventing bone loss” (priority 2002, published 2003)
